Test results reported in publication PMC5774622 (Biochimie, 2017).
Values belong to the compound of their own block, whether it stands above or below them.

Tests used:
CN [1] = biological target: CN (Rattus norvegicus, UniProt P63100+P63329); test: CN phosphatase colorimetric assay with RII phosphopeptide as substrate; format: biochemical
CN [2] = settings: read-out: Kd for binding to CN; cited from earlier work
CN [3] = settings: cited from earlier work
[4] = tested on: NFAT activation (NFATc1-c3) in T cells; settings: cited from earlier work
[5] = biological target: FAM-labeled TFEB-YLENP peptide; test: MST
[6] = biological target: FAM-labeled TFEB-YLAVP peptide (mutant); test: MST

- IC50 (CN [1]): 9 µM
Compound: CC(C)C[C@H](NC(=O)[C@H](Cc1ccc(O)cc1)NC(=O)[C@H](CCC(N)=O)NC(=O)[C@@H](N)CC(=O)O)C(=O)N[C@@H](C)C(=O)N[C@H](C(=O)N1CCC[C@H]1C(=O)N[C@@H](CCC(N)=O)C(=O)N[C@@H](Cc1c[nH]cn1)C(=O)N1CCC[C@H]1C(=O)N[C@@H](Cc1ccc(O)cc1)C(=O)N[C@@H](CCC(N)=O)C(=O)N[C@@H](Cc1c[nH]c2ccccc12)C(=O)N[C@@H](C)C(=O)N[C@@H](CCCCN)C(=O)O)C(C)C [NFATc1-YLAVP]

Compound: MAGPHPVIVITGPHEE
- Kd (CN [2]): 500 nM
- effect on CN activity (CN [3]): without affecting the CN activity
- NFAT activation (NFATc1-c3) and NFAT-dependent gene expression in T cells [4]: potently inhibited

- Kd [5]: 4.5 µM
- Kd [6]: 2400 nM
Compound: Calcineurin with calmodulin (CN; CNA:CNB:CaM, 1:1:2) (from UniProt P63100 1-170; P62157 1-149) (complex)
